# Laboratory results reported in US11447485B2, “Class of bifunctional compounds with quanternary ammonium salt structure” (Beijing Showby Pharmaceutical Co., Ltd., priority 2016, dated 2022).
# Protein sequences, listed by entry. Tags and fused reporters are not part of them. Lines headed by an entry give the natural chain unless they say otherwise; changes in a name come on top.
# UniProt P08172, whole entry: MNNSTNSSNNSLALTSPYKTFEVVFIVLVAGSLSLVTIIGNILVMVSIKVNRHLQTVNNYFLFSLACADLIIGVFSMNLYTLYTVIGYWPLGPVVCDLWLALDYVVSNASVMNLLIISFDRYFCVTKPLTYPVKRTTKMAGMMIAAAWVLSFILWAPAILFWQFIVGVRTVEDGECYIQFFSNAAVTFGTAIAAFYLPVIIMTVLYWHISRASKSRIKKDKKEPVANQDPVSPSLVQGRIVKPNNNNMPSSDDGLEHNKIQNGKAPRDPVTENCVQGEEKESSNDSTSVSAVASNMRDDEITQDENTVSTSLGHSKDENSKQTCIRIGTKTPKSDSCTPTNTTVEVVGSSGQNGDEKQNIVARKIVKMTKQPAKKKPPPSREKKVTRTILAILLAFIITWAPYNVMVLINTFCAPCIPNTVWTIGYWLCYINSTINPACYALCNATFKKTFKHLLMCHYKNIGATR
# UniProt P11229: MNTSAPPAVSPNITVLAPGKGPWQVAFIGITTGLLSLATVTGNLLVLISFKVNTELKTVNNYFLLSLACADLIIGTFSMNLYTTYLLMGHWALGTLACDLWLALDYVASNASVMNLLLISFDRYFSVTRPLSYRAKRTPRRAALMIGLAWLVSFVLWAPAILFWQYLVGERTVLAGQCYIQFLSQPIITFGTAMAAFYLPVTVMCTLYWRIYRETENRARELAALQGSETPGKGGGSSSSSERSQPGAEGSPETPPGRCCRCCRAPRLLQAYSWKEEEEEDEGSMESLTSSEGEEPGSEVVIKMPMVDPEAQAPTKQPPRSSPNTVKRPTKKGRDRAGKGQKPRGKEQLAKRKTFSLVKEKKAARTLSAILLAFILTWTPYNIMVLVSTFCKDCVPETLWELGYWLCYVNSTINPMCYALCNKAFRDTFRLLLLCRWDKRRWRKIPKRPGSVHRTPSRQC
# UniProt P20309, whole entry: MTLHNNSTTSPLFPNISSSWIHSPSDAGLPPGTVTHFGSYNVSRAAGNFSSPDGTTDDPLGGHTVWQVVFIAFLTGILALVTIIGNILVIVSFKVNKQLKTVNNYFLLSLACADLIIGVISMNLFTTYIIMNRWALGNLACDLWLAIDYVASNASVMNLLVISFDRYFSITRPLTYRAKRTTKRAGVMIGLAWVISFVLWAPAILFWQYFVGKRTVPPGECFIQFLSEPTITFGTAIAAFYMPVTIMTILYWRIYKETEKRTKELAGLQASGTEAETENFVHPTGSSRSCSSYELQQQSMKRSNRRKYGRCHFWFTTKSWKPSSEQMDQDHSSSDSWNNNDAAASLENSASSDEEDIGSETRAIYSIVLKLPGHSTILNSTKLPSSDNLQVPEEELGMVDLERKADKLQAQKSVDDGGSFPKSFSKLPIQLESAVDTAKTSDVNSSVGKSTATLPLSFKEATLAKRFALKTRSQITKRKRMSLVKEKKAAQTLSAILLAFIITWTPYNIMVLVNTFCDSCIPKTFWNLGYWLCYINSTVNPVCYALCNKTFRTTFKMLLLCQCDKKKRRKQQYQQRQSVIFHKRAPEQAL
# Assays:
# Experiment in all cases: biochemical
# Assay type in all cases: binding
# [1] = molecular target: human recombinant M2 receptor (Homo sapiens, UniProt P08172)
# [2] = molecular target: human recombinant M1 receptor (Homo sapiens, UniProt P11229)
# [3] = molecular target: human recombinant M3 receptor (Homo sapiens, UniProt P20309)
smiles,measurement,setting,value
"CC(C)[N+]1(C)[C@@H]2CC[C@H]1C[C@@H](OC(=O)C(CO)c1ccccc1)C2 (stereo partly drawn) [Ipratropium bromide, ipratropium bromide, reference compound]",Ki,[1],0.81 ± 0.12 nM
same,Ki,[2],1.41 ± 0.45 nM
same,Ki,[3],0.692 ± 0.21 nM
